The results in this text go back to PMC7497403, “Development of Potent PfCLK3 Inhibitors Based on TCMDC-135051 as a New Class of Antimalarials” (Journal of Medicinal Chemistry, 2020).

Chains of the proteins cited; added tags and fusions are not shown. Lines headed by an entry give the natural chain unless they say otherwise; changes in a name come on top.
UniProt O43781: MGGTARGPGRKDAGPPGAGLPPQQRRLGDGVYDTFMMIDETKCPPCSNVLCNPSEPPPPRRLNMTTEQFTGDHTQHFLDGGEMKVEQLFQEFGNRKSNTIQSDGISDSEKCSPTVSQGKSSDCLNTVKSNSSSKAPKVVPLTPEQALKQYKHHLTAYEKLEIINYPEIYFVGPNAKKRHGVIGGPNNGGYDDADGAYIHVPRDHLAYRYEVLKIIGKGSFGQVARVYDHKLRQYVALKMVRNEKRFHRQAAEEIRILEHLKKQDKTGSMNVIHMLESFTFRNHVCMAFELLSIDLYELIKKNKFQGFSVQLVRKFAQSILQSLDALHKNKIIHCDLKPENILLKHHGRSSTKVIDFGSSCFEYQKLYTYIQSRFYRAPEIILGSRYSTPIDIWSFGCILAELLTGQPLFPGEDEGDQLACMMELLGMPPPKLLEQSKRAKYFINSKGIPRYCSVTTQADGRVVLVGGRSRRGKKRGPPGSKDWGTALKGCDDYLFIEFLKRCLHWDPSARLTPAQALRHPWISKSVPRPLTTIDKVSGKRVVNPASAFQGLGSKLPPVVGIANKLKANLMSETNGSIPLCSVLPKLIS
UniProt Q92630: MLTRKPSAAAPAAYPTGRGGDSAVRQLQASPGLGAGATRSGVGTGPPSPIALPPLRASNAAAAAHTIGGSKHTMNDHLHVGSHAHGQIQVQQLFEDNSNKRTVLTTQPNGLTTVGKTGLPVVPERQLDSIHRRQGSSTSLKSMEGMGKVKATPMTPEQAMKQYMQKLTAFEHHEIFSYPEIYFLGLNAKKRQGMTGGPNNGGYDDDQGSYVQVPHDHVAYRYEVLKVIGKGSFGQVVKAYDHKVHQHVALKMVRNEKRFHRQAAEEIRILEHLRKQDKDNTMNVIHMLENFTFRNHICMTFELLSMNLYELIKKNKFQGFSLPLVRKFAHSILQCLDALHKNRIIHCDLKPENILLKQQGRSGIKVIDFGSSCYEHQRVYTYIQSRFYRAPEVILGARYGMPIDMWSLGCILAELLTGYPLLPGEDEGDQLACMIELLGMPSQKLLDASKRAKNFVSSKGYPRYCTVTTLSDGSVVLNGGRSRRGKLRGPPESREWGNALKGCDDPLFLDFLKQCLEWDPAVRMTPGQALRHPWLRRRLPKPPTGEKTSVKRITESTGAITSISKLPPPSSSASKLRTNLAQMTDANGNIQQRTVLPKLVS
UniProt P49841: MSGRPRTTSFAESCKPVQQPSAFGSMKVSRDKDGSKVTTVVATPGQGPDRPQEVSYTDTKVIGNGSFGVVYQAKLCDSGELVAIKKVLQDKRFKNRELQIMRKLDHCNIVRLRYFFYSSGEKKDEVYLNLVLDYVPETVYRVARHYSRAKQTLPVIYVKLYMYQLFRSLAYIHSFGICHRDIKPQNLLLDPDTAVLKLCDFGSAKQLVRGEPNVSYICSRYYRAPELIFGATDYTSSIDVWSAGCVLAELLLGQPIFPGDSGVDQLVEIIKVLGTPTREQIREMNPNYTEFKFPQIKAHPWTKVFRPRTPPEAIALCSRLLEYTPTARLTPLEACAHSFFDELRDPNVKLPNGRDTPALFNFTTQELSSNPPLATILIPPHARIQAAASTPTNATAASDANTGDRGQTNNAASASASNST
UniProt P49760, whole entry: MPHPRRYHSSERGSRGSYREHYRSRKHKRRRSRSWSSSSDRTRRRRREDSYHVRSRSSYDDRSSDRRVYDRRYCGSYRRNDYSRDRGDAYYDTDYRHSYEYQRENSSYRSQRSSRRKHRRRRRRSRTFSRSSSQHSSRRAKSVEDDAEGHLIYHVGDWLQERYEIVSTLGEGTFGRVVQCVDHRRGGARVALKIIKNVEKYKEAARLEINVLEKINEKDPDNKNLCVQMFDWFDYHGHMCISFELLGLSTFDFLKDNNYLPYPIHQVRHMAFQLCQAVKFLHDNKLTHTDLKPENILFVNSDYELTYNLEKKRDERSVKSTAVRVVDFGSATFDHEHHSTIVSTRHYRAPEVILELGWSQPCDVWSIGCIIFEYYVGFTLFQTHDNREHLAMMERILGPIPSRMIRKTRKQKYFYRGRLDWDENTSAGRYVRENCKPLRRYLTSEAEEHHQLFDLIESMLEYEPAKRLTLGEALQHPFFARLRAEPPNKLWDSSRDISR

Some targets named below: DYRK3 (Homo sapiens, UniProt O43781); DYRK2 (Homo sapiens, UniProt Q92630); DYRK1A (Homo sapiens, UniProt Q13627); GSK3b (Homo sapiens, UniProt P49841); CLK2 (Homo sapiens, UniProt P49760).
Holding throughout (assay): biochemical

Consider `CCN(CC)Cc1ccc(OC)c(-c2cc3c(-c4ccc(C(=O)O)c(C(C)C)c4)ccnc3[nH]2)c1` [analogue 1, 4-(2-(5-((Diethylamino)methyl)-2-methoxyphenyl)-1H-pyrrolo[2,3-b]pyridin-4-yl)-2-isopropylbenzoic Acid], for which the activity at 1 µM at DYRK3 is 101%; on DYRK2, 99%; at DYRK1A it was 71%; on GSK3b, 51%; on CLK2, 17%.
